# Tested on: Ramos B cells
# Assay: CDC activity, propidium iodide flow cytometry with human serum
# Assay type: cell-based
# Conditions: TRU-015 from CHO cells treated with 30 μg/ml castanospermine
# Procedure: To determine the CDC activity of TRU-016 purified protein produced according to Example 2, Ramos B cells were suspended in Iscoves (Gibco/Invitrogen, Grand Island, N.Y.) at 5×10^5 cells/well in 75 μl. TRU-016 (75 μl) were added to the cells at twice the concentrations indicated. Binding reactions were allowed to proceed for 45 minutes prior to centrifugation and washing in serum-free Iscoves. Cells were resuspended in Iscoves with human serum (containing complement) at various concentrations. The cells were incubated 60 minutes at 37° C. Cells were washed by centrifugation and resuspended in staining media with 0.5 μg/ml propidium iodide. Samples were incubated 15 minutes at room temperature in the dark prior to analysis by flow cytometry using a FACsCalibur and CellQuest software (Becton Dickinson).
substance,measurement,value
"TRU-015: recombinant single chain protein (SMIP) that binds CD20; 2H7 variable regions, CSS hinge, human IgG1 CH2 and CH3; SEQ ID NO: 4",CDC compared with protein produced by untreated CHO cells,similar

# — patent publication US20100150948A1, “MATERIALS AND METHODS FOR IMPROVED IMMUNOGLYCOPROTEINS” (TRUBION PHARMACEUTICALS, INC., priority 2006, published 2010)
